Laboratory results taken from patent US20050164331A1, “Method and device for detecting toxic material in water using microbial fuel cell” (priority 2002, published 2005).

Tested on: electrochemically active bacteria in the sludge
Settings: microbial fuel cell with active sludge; fuel glucose and glutamic acid (CODcr 200 ppm); standard solution added successively at 0.01-0.05 ppm; current measured at 60 seconds interval

mercury [Hg]
concentration at which the constantly generated current showed a sharp drop: 0.03 ppm
